Measured values published in patent US20100221345A1, “OSTEOGENIC BIOMATERIAL CONTAINING OSTEOGENESIS PROMOTING SUBSTANCE AND NANOGEL” (NATIONAL UNIVERSITY CORPORATION TOKYO MEDICAL AND, priority 2006, published 2010).

System: MC3T3-E1 cells
Assay: Release of BMP-2 from CHP: ALP activity in osteoblast-like cells
Type: cell-based
Conditions: MC3T3-E1 cells treated with rhBMP-2 or BMP/CHP
Method: Finally, in order to investigate the release of BMP-2 from CHP, MC3T3-E1 cells, which were osteoblast-like strains, were treated with rhBMP-2 and BMP/CHP to compare their ALP activities.

B1: rhBMP-2: bone morphogenetic protein, molecule which induces heterotopic osteogenesis (protein, UniProt P12643 283-396, looked up)
Bone morphogenetic protein 2: QAKHKQRKRLKSSCKRHPLYVDFSDVGWNDWIVAPPGYHAFYCHGECPFPLADHLNSTNHAIVQTLVNSVNSKIPKACCVPTELSAISMLYLDENEKVVLKNYQDMVVEGCGCR
How did the ALP activity turn out when B1 was run?
Its ALP activity is “increase in ALP activity in a BMP dose-dependent manner”.
